Measured values reported in patent US11414379B2, “SPAK kinase inhibitors as neuroprotective agents” (United States Government as represented by the Department …, priority 2018, dated 2022).

Legend:
[1] = In vivo pharmacokinetics (data not shown)
[2] = tested on: KCCs sites-1/2 (KCC2 Thr906/1007 or KCC3 Thr991/1048) phosphorylation; experiment: Phosphorylation immunoblot in HEK293 cells; format: cell-based, human; settings: only at this concentration
Description: HEK293 (human embryonic kidney 293) cells were cultured on 10-cm-diameter dishes in DMEM supplemented with 10% (v/v) foetal bovine serum, 2 mM L-glutamine, 100 U/ml penicillin and 0.1 mg/ml streptomycin. HEK293 cells were transfected with a mixture of 20 μl of 1 mg/ml polyethylenimine (Polysciences) and 5-10 μg of plasmid DNA as described previously (Durocher et al., 2002). 36 hours post-transfection cells were stimulated with either control isotonic or hypotonic medium for a period of 30 minutes. […] Protein concentrations were determined using the Bradford method. […]
Protein samples (40 μg) were boiled in sample buffer for 5 min, resolved by 7.5% sodium dodecyl sulfate polyacrylamide-gel electrophoresis and electrotransferred onto a polyvinylidene difluoride membrane as previously described (Bhuiyan et al. (2017) Journal of cerebral bloodflow and metabolism: official journal of the International Society of Cerebral Blood Flow and Metabolism 37: 2780-2794; de Los Heros et al. (2014) The Biochemical journal 458: 559-573; Zhu et al. (2014) Molecular cancer 13: 31). […] After repeating the washing steps, signals were detected with enhanced chemiluminescence reagent. […] The densities of bands were measured with ImageJ. […]

- in vivo pharmacokinetics [1]: unfavorable in vivo pharmacokinetics
Structure (SMILES): CCN1/C(=C\C2=CC(=C/C=C/c3sc4ccccc4[n+]3CC)/CC(C)C2)Sc2ccccc21 (centres unmarked)
- concentration at which phosphorylation of KCCs site-1 was significantly inhibited [2]: 10 µM
